Earlier results on one molecule are cited in patent US9464021B2, “Method of preparation of stereospecific quinone derivatives” (priority 2013, dated 2016).

By UniProt entry, the sequences of proteins in these tests, tags left out. Residues count along the entry.
UniProt P23219, 24-599: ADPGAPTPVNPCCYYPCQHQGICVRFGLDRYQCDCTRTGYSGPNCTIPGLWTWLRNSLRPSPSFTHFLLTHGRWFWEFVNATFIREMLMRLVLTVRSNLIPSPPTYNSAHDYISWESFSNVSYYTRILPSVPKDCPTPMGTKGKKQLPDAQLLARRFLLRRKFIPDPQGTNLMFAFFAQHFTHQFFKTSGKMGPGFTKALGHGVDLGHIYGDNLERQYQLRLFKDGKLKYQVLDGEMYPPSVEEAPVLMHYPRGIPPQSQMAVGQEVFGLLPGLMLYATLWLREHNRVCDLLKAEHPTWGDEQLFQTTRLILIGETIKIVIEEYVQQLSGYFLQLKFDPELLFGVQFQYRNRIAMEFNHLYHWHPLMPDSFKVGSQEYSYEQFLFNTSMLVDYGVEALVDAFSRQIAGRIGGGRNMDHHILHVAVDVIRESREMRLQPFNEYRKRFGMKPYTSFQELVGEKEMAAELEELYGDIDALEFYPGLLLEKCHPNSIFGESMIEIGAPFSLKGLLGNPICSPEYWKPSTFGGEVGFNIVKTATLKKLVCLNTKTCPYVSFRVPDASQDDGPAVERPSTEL

SMILES strings stand for the structures.

The data set deals with cyclo-oxygenase I (Homo sapiens, UniProt P23219). The note with it: versus R-ibuprofen.

With `CC(C)Cc1ccc([C@H](C)C(=O)O)cc1` [S-ibuprofen], the “potency as inhibitor of cyclo-oxygenase I relative to R-ibuprofen” value is “over 100 fold”.
